This is a selection: effects in other tests are not listed, and their absence says nothing.
Legend:
function of the retina = assay: Electroretinography (ERG) of eyes treated with Isoket, […] or IS 5; details: after 48 hours, different light intensities (0.1, 1, 3, 10 cd.s/m2), dark adapted

## O=[N+]([O-])OCC(CO[N+](=O)[O-])(CO[N+](=O)[O-])CO[N+](=O)[O-]
Pigmented Abca^4−/− mice; intravitreal, right eye, after 48 hours, Isoket 80 μg, Pentalong 100 μg, IS 5 80 μg, vs untreated left eye
  reduction of the amount of fluorescent lipofuscin granules: 20%
Pigmented Abca^4−/− mice; treated vs untreated eye from the same mouse
  fluorescence of lipofuscin (fluorescence intensity, arbitrary units, FIG. 3): removed the fluorescence of lipofuscin
Function of the retina
  ERG responses, treated vs untreated eye: no difference between the treated and the untreated eyes
